How the values were obtained:
Format in all cases: biochemical
recombinant human MAO-B [1] = target: T1, recombinant human MAO-B (Homo sapiens, UniProt P27338); test: Fluorometric kynuramine deamination assay, MAO-B inhibition (IC50)
T1 construct: purchased BD Biosciences (Bedford, MA, USA); host or cells: baculovirus (Autographa californica) infected insect cells (BTI-TN-5B1-4)
Method: Pure recombinant human monoamine oxidases (MAO-A and MAO-B) enzymes overexpressed in baculovirus (Autographa californica) infected insect cells (BTI-TN-5B1-4) were purchased from BD Biosciences, (Bedford, MA, USA).
Stock solutions of the test compounds/extracts were prepared in DMSO and diluted further in 0.1 M potassium phosphate buffer (pH 7.4) to obtain the desired concentrations. MAO-A and MAO-B activities were determined by fluorometric kynuramine deamination assay set up in 384-well solid white flat-bottom plates. MAO-A and MAO-B inhibition activities (IC50 values) were determined using fixed concentration of the substrate kynuramine and varying concentrations of the test compounds or extracts. The enzyme reactions were carried out in 0.1 M potassium phosphate buffer (pH-7.4). […] The reaction mixtures with buffer/substrate/inhibitor were preincubated for 10 minutes at 37°C, followed by addition of MAO-A and MAO-B to initiate the reaction. The solid white microplates were incubated for 20 minutes at 37°C and the enzymatic reaction was stopped by addition of 28 µL of 2 N NaOH to each well. The deaminated product of kynuramine, which spontaneously cyclizes to 4-hydroxyquinoline, was measured fluorometrically at 320 nm excitation and 380 nm emission wavelengths with a plate reader (SpectraMax M5, Molecular Devices, Sunnyvale, CA, USA). […]

Protein sequences, listed by entry. Tags and fused reporters are not part of them.
UniProt P27338, whole entry: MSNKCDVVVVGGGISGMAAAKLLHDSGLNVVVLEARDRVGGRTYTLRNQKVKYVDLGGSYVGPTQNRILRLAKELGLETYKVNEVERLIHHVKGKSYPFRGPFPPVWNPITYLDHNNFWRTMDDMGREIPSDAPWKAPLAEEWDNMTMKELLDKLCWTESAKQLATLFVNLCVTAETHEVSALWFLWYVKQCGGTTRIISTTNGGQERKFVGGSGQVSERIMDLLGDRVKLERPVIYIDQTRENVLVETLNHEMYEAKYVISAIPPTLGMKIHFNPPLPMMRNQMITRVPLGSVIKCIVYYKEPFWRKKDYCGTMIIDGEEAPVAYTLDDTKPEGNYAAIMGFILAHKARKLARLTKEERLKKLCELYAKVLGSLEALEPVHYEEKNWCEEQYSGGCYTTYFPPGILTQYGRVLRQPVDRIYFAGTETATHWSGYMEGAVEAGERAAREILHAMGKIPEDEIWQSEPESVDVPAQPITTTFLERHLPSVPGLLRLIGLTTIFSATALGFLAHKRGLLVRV
UniProt P21397, whole entry: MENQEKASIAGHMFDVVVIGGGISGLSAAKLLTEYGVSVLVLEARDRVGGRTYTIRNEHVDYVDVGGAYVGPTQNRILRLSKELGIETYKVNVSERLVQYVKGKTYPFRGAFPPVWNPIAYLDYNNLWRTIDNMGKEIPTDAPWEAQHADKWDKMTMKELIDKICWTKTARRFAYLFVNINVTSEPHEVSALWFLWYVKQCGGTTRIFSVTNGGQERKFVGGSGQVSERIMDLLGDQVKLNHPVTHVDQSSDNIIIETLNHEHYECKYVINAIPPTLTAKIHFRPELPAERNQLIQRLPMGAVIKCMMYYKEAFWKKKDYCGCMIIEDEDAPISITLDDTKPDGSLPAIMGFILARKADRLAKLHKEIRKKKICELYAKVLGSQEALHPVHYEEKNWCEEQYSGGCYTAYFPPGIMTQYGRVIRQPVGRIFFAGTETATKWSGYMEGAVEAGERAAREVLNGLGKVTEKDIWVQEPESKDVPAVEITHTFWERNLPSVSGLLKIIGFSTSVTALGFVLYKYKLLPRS

recombinant human MAO-A = target: T2, recombinant human MAO-A (Homo sapiens, UniProt P21397); test: Enzyme kinetics and mechanism of inhibition of MAO-A; conditions: Lineweaver-Burk / dialysis
T2 construct: purchased BD Biosciences (Bedford, MA, USA); host or cells: baculovirus (Autographa californica) infected insect cells (BTI-TN-5B1-4)
Method: (§1) Results are presented as double reciprocal Lineweaver-Burk plots. The kinetic data, namely, KM, Vmax, and Ki values, were calculated by SigmaPlot 12.3 with enzyme-kinetics module using Michaelis-Menten equation. The results were also analyzed for the type of inhibition.
(§2) We further evaluated the kinetics and mechanism of inhibition of human MAO-A and MAO-B isoenzymes by desmethoxyyangonin 6 (Figures 3 and 4). To comprehend the type of inhibition, we examined 6 against both MAO-A and MAO-B at varying concentrations of kynuramine, a nonselective substrate. Desmethoxyyangonin 6 was tested at two concentrations: one above and the other below the IC50 value. For each experiment, three sets of assays were done at variable concentrations of the substrate: two concentrations of the inhibitor/compound and one control without inhibitors. The results are presented as double reciprocal Lineweaver-Burk plots and the kinetic data, namely, KM, Vmax, and Ki values, were computed by SigmaPlot 12.3 with enzyme-kinetics module using Michaelis-Menten equation (Table 2). […] However, MAO-B inhibition by 6 was competitive (Figure 4). The binding affinities of compound 6 with MAO-A and MAO-B were compared with reference MAO inhibitors.

recombinant human MAO-B [2] = target: T1, recombinant human MAO-B; test: Enzyme kinetics and mechanism of inhibition of MAO-B; conditions: Lineweaver-Burk / dialysis
Method: as §1, §2

For `NNCCc1ccccc1` [Phenelzine, phenelzine, reference compound], the IC50 (recombinant human MAO-B [1]; kynuramine 50 μM, mean ± SD of triplicate, read-out: Monoamine oxidase-B IC50) was 0.15 ± 0.0095 µM, the “Index MAO-A/B” value (recombinant human MAO-B [1]; ratio of IC50 MAO-A / IC50 MAO-B) was 1.566 and the “Type of Inhibition, Monoamine oxidase-A” value (recombinant human MAO-A) was “Mixed/irreversible”. The “Type of Inhibition, Monoamine oxidase-B” value (recombinant human MAO-B [2]) was “Mixed/irreversible”.
